In experiment [1] the target is Protein farnesyltransferase (Bos taurus, UniProt P29702+P49355). Briefly: Inhibitory activity against Ras Farnesyl Protein transferase from bovine brain. In outline:
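FPTase purified from bovine brain (about 1 nM) incubated with [³H]FPP, recombinant Harvey-Ras and varying inhibitor concentrations. Protein was acid-precipitated and Ras-bound label counted by scintillation. IC50 is the concentration halving label incorporation relative to the no-inhibitor control, given as mean ± SEM with the number of determinations.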

Sequences of proteins named here, by UniProt entry; tags and fusion partners are left off.
UniProt P49355, whole entry, looked up: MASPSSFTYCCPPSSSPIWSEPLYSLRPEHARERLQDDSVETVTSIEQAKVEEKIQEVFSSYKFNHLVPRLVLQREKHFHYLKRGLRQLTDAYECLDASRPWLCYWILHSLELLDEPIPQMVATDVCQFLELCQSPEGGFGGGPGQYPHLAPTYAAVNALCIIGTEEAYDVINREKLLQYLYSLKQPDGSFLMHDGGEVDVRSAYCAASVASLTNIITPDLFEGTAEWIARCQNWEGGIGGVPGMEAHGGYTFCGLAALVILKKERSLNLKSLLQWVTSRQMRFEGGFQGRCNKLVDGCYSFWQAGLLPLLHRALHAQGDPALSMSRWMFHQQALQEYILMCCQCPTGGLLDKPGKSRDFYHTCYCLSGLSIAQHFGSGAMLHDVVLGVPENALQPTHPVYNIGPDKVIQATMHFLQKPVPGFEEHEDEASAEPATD
UniProt Q5EAD5, whole entry, looked up: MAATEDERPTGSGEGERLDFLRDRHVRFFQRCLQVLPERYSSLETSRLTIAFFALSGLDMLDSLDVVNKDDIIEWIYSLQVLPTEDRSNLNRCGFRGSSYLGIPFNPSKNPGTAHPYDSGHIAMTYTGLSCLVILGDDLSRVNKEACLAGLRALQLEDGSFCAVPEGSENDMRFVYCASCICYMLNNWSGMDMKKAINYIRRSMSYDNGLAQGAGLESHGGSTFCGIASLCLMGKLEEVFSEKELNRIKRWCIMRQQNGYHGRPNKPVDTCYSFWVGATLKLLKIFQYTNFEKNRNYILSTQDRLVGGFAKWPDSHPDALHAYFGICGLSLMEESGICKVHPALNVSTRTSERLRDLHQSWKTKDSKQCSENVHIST

For experiment [2], the target named is Geranylgeranyl transferase type I (Bos taurus, UniProt P29702+Q5EAD5). The experiment can be described thus: Inhibitory activity against bovine type-1 geranylgeranyl transferase. The experiment is classed as protein-complex assay.

As to `CC[C@H](C)[C@H](NC(=O)[C@@H](NC(=O)[C@@H](N)CS)C(C)C)C(=O)N[C@@H](CC(C)C)C(=O)O`, the values for the IC50 in experiment [1] and in experiment [2] were 16.7 µM and 11.3 µM, respectively.

These data come from ChEMBL document CHEMBL1127813, “Pseudopeptide inhibitors of Ras farnesyl-protein transferase” (J Med Chem, 1994).
